How the values were obtained:
[1] = molecular target: T1, XIAP BIR2 (Homo sapiens, UniProt P98170); test: BIR2 TR-FRET assay (displacement of AVPI-derived peptide); type: binding; conditions: FRET-based displacement of AVPI-derived peptide from 6xHis BIR2 (124-240); Ki from IC50 by Cheng-Prusoff; read-out: BIR2 K i
T1 construct: 6×histidine-tagged BIR2 (amino acids 124–240) or BIR3 (amino acids 241–356) domain of the XIAP protein
Experimental: (§1) Time-resolved fluorescence resonance energy transfer (TR-FRET) signals were measured 1 h later at room temperature. Compound potency was assessed at ten serially diluted concentrations. The percentage of inhibition at each concentration was determined to generate an IC50 value for each compound.

Protein sequences, listed by entry. Tags and fused reporters are not part of them. Residues count along the entry.
UniProt P98170, 124-240: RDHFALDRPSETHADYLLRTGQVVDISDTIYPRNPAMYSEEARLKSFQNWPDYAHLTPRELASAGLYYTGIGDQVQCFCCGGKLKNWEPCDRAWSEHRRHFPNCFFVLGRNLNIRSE
UniProt P98170, 241-356: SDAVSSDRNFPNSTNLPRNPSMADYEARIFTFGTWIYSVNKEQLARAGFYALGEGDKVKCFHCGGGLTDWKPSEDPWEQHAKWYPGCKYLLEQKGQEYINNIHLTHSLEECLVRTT

[2] = molecular target: T2, XIAP BIR3 (Homo sapiens, UniProt P98170); test: BIR3 TR-FRET assay (displacement of AVPI-derived peptide); type: binding; conditions: FRET-based displacement of AVPI-derived peptide from 6xHis BIR3 (241-356); Ki from IC50 by Cheng-Prusoff; read-out: BIR3 K i
T2 construct: 6×histidine-tagged BIR2 (amino acids 124–240) or BIR3 (amino acids 241–356) domain of the XIAP protein
Experimental: as §1

Ki [1] [µM] | Ki [2] [µM] | Structure (SMILES)
12 | 4.62 | CC[C@H](C)[C@H](NC(=O)[C@@H]1CCCN1C(=O)[C@@H](NC(=O)[C@@H](N)CO)C(C)C)C(=O)O [SVPI]
10.2 | 0.12 | CC[C@H](C)[C@H](NC(=O)[C@@H]1CCCN1C(=O)[C@H](CCCNC(=N)N)NC(=O)[C@H](C)N)C(=O)O [ARPI]

From article PMC3760131 (Acta Crystallographica Section D: Biological Crystallography, 2013)
